Earlier results in patent publication US20200315241A1 (Nude Nicotine, Inc., priority 2017, published 2020).
Read-outs that look alike come from different tables or passages of the source.

Settings: Table 7, nicotine salt (organic acid), cited from earlier work

Row | SMILES | pKa | pKa (second value)
1 | CN1CCCC1c1cccnc1.O=C(O)CC(O)C(=O)O (centres unmarked) [Nicotine malate] | 3.51 | 5.03
2 | CCC(=O)O.CN1CCCC1c1cccnc1 (centres unmarked) [Nicotine propionate] | 4.88 | 
3 | CN1CCCC1c1cccnc1.O=C(O)CO (centres unmarked) [Nicotine glycolate] | 3.83 | 
4 | CN1CCCC1c1cccnc1.O=C(O)C(O)C(O)C(=O)O (centres unmarked) [Nicotine tartrate] | 3.22 | 4.85
5 | CN1CCCC1c1cccnc1.O=C(O)CC(O)(CC(=O)O)C(=O)O [Nicotine citrate] | 2.79 | 
6 | CN1CCCC1c1cccnc1.O=C(O)/C=C/C(=O)O (centres unmarked) [Nicotine fumarate] | 3.03 | 4.54
7 | CC(O)C(=O)O.CN1CCCC1c1cccnc1 (centres unmarked) [Nicotine lactate] | 3.58 | 
8 | CN1CCCC1c1cccnc1.O=CO (centres unmarked) [Nicotine formate] | 3.75 | 
9 | CN1CCCC1c1cccnc1.O=C(O)CCC(=O)O (centres unmarked) [Nicotine succinate] | 4.21 | 5.63
10 | CN1CCCC1c1cccnc1.O=C(O)c1ccccc1 (centres unmarked) [Nicotine benzoate] | 4.19 | 
11 | CN1CCCC1c1cccnc1.O=C(O)CC(=O)O (centres unmarked) [Nicotine malonate] | 2.85 | 
12 | CN1CCCC1c1cccnc1.O=C(O)C(=O)O (centres unmarked) [Nicotine oxalate] | 1.46 | 4.40
